Test results reported in PubChem BioAssay AID1117361 (Southern Research Institute, 2015).

Amino acid sequences for entries named in this document (tags omitted). A change or cut given only in a name is not applied to a line headed by its entry.
UniProt P04608: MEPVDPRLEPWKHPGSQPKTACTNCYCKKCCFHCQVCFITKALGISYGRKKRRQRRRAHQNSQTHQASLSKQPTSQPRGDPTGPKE

Target: Protein Tat (Human immunodeficiency virus type 1 group M subtype B (isolate HXB2)) (UniProt P04608)
Test: inhibitors of Tat binding to TAR RNA, dose response, counter-screen for Vif-APOBEC3G degradation inhibitor project, biochemical, fluorescence polarization, FAM-labeled TAR RNA (AID 1117361)

IC50: 12.9 µM
Structure (SMILES): Oc1ccc(/C=N/NC(=S)Nc2cccnc2)c(O)c1O
